Data reported in patent US20100330649A1.

Columns and labels:
[1] = target: His8-cytb5R (soluble form of human cytochrome b5 reductase with N-terminal His8 tag) (human) (UniProt P00387); assay: cell-based or functional assay
[2] = tested on: His8-MBP-fl-cytb5 fusion protein

| V/K, µM^-1 s^-1 (steady-state reduction of cytb5 by His8-cytb5R with NADH) [1] [M⁻¹ s⁻¹] | Substance | Km, µM (steady-state reduction of cytb5 by His8-cytb5R with NADH) [2] [µM] | Vmax, s^-1 (steady-state reduction of cytb5 by His8-cytb5R with NADH, absorbance at 413 nm) [2] [s⁻¹] | apparent Vmax relative to His8-cytb5-sd [2] |
| --- | --- | --- | --- | --- |
| 1.7e+07 | His8-MBP-fl-cytb5 fusion protein |  |  |  |
|  | His8-cytb5R (soluble form of human cytochrome b5 reductase with N-terminal His8 tag) | 5 | 84 | the His8-MBP-fl-cytb5 had an apparent Vmax that was ˜3-fold higher than that of His8-cytb5-sd |
